Results: the Human Domainome abundance scans (Beltran et al. 2025)
± gives the uncertainty stated by the source.

B1: Tyrosine-protein kinase ABL1, residues 64 to 120; numbered along this chain, P00519 (parent)
chain: NLFVALYDFVASGDNTLSITKGEKLRVLGYNHNGEWCEAQTKNGQGWVPSNYITPVN

Variants of: B1
Assay: abundance fitness (aPCA) (normalised: wild type 0, dead -1); higher = more abundant; growth selection in yeast, the domain comes from the species named
Conditions: Homo sapiens

Question: With NLFVALYDFVASGDNTLSITMGEKLRVLGYNHNGEWCEAQTKNGQGWVPSNYITPVN [K21M] as the variant, how does the abundance fitness read?
Answer: -0.19 ± 0.084

Question: Which abundance fitness does the source give for NLFVALYDFVASGDNTLSITNGEKLRVLGYNHNGEWCEAQTKNGQGWVPSNYITPVN [K21N] here?
Answer: -0.003 ± 0.18

Question: With NLFVALYDFVASGDNTLSITPGEKLRVLGYNHNGEWCEAQTKNGQGWVPSNYITPVN [K21P] as the variant, how does the abundance fitness read?
Answer: -0.837 ± 0.35

Question: Which abundance fitness does the source give for NLFVALYDFVASGDNTLSITQGEKLRVLGYNHNGEWCEAQTKNGQGWVPSNYITPVN [K21Q] here?
Answer: 0.058 ± 0.15

Question: For NLFVALYDFVASGDNTLSITRGEKLRVLGYNHNGEWCEAQTKNGQGWVPSNYITPVN [K21R], which abundance fitness is on record?
Answer: -0.159 ± 0.056

Question: Which abundance fitness does the source give for NLFVALYDFVASGDNTLSITSGEKLRVLGYNHNGEWCEAQTKNGQGWVPSNYITPVN [K21S] here?
Answer: -0.299 ± 0.12

Question: Which abundance fitness does the source give for NLFVALYDFVASGDNTLSITTGEKLRVLGYNHNGEWCEAQTKNGQGWVPSNYITPVN [K21T] here?
Answer: -0.289 ± 0.092

Question: With NLFVALYDFVASGDNTLSITVGEKLRVLGYNHNGEWCEAQTKNGQGWVPSNYITPVN [K21V] as the variant, how does the abundance fitness read?
Answer: -0.234 ± 0.069

Question: Which abundance fitness does the source give for NLFVALYDFVASGDNTLSITWGEKLRVLGYNHNGEWCEAQTKNGQGWVPSNYITPVN [K21W] here?
Answer: -0.682 ± 0.12

Question: Which abundance fitness does the source give for NLFVALYDFVASGDNTLSITYGEKLRVLGYNHNGEWCEAQTKNGQGWVPSNYITPVN [K21Y] here?
Answer: -0.171 ± 0.084

Question: Which abundance fitness does the source give for NLFVALYDFVASGDNTLSITKAEKLRVLGYNHNGEWCEAQTKNGQGWVPSNYITPVN [G22A] here?
Answer: -0.315 ± 0.088

Question: For NLFVALYDFVASGDNTLSITKCEKLRVLGYNHNGEWCEAQTKNGQGWVPSNYITPVN [G22C], which abundance fitness is on record?
Answer: -0.291 ± 0.14

Question: Which abundance fitness does the source give for NLFVALYDFVASGDNTLSITKDEKLRVLGYNHNGEWCEAQTKNGQGWVPSNYITPVN [G22D] here?
Answer: 0.15 ± 0.11

Question: Which abundance fitness does the source give for NLFVALYDFVASGDNTLSITKHEKLRVLGYNHNGEWCEAQTKNGQGWVPSNYITPVN [G22H] here?
Answer: -0.473 ± 0.28

Question: For NLFVALYDFVASGDNTLSITKKEKLRVLGYNHNGEWCEAQTKNGQGWVPSNYITPVN [G22K], which abundance fitness is on record?
Answer: -0.404 ± 0.14

Question: With NLFVALYDFVASGDNTLSITKLEKLRVLGYNHNGEWCEAQTKNGQGWVPSNYITPVN [G22L] as the variant, how does the abundance fitness read?
Answer: -0.753 ± 0.19

Question: For NLFVALYDFVASGDNTLSITKMEKLRVLGYNHNGEWCEAQTKNGQGWVPSNYITPVN [G22M], which abundance fitness is on record?
Answer: 0.121 ± 0.14

Question: Which abundance fitness does the source give for NLFVALYDFVASGDNTLSITKNEKLRVLGYNHNGEWCEAQTKNGQGWVPSNYITPVN [G22N] here?
Answer: -0.385 ± 0.18

Question: Which abundance fitness does the source give for NLFVALYDFVASGDNTLSITKPEKLRVLGYNHNGEWCEAQTKNGQGWVPSNYITPVN [G22P] here?
Answer: -1.1 ± 0.43

Question: Which abundance fitness does the source give for NLFVALYDFVASGDNTLSITKQEKLRVLGYNHNGEWCEAQTKNGQGWVPSNYITPVN [G22Q] here?
Answer: -0.626 ± 0.26

Question: With NLFVALYDFVASGDNTLSITKREKLRVLGYNHNGEWCEAQTKNGQGWVPSNYITPVN [G22R] as the variant, how does the abundance fitness read?
Answer: -0.449 ± 0.099

Question: With NLFVALYDFVASGDNTLSITKSEKLRVLGYNHNGEWCEAQTKNGQGWVPSNYITPVN [G22S] as the variant, how does the abundance fitness read?
Answer: -0.243 ± 0.075

Question: For NLFVALYDFVASGDNTLSITKTEKLRVLGYNHNGEWCEAQTKNGQGWVPSNYITPVN [G22T], which abundance fitness is on record?
Answer: -1.13 ± 0.31

Question: For NLFVALYDFVASGDNTLSITKVEKLRVLGYNHNGEWCEAQTKNGQGWVPSNYITPVN [G22V], which abundance fitness is on record?
Answer: -0.973 ± 0.17

Question: For NLFVALYDFVASGDNTLSITKWEKLRVLGYNHNGEWCEAQTKNGQGWVPSNYITPVN [G22W], which abundance fitness is on record?
Answer: -0.669 ± 0.2

Question: Which abundance fitness does the source give for NLFVALYDFVASGDNTLSITKYEKLRVLGYNHNGEWCEAQTKNGQGWVPSNYITPVN [G22Y] here?
Answer: -0.378 ± 0.19

Question: Which abundance fitness does the source give for NLFVALYDFVASGDNTLSITKGAKLRVLGYNHNGEWCEAQTKNGQGWVPSNYITPVN [E23A] here?
Answer: -0.397 ± 0.12

Question: For NLFVALYDFVASGDNTLSITKGCKLRVLGYNHNGEWCEAQTKNGQGWVPSNYITPVN [E23C], which abundance fitness is on record?
Answer: -0.24 ± 0.28

Question: For NLFVALYDFVASGDNTLSITKGDKLRVLGYNHNGEWCEAQTKNGQGWVPSNYITPVN [E23D], which abundance fitness is on record?
Answer: 0.062 ± 0.15

Question: With NLFVALYDFVASGDNTLSITKGHKLRVLGYNHNGEWCEAQTKNGQGWVPSNYITPVN [E23H] as the variant, how does the abundance fitness read?
Answer: -0.618 ± 0.24

Question: With NLFVALYDFVASGDNTLSITKGKKLRVLGYNHNGEWCEAQTKNGQGWVPSNYITPVN [E23K] as the variant, how does the abundance fitness read?
Answer: -0.607 ± 0.18

Question: Which abundance fitness does the source give for NLFVALYDFVASGDNTLSITKGLKLRVLGYNHNGEWCEAQTKNGQGWVPSNYITPVN [E23L] here?
Answer: -0.727 ± 0.14

Question: For NLFVALYDFVASGDNTLSITKGMKLRVLGYNHNGEWCEAQTKNGQGWVPSNYITPVN [E23M], which abundance fitness is on record?
Answer: -0.179 ± 0.11

Question: Which abundance fitness does the source give for NLFVALYDFVASGDNTLSITKGNKLRVLGYNHNGEWCEAQTKNGQGWVPSNYITPVN [E23N] here?
Answer: -0.569 ± 0.31

Question: With NLFVALYDFVASGDNTLSITKGPKLRVLGYNHNGEWCEAQTKNGQGWVPSNYITPVN [E23P] as the variant, how does the abundance fitness read?
Answer: -1.13 ± 0.1

Question: For NLFVALYDFVASGDNTLSITKGQKLRVLGYNHNGEWCEAQTKNGQGWVPSNYITPVN [E23Q], which abundance fitness is on record?
Answer: -0.11 ± 0.075

Question: With NLFVALYDFVASGDNTLSITKGTKLRVLGYNHNGEWCEAQTKNGQGWVPSNYITPVN [E23T] as the variant, how does the abundance fitness read?
Answer: -0.404 ± 0.11

Question: With NLFVALYDFVASGDNTLSITKGVKLRVLGYNHNGEWCEAQTKNGQGWVPSNYITPVN [E23V] as the variant, how does the abundance fitness read?
Answer: -0.477 ± 0.14

Question: Which abundance fitness does the source give for NLFVALYDFVASGDNTLSITKGWKLRVLGYNHNGEWCEAQTKNGQGWVPSNYITPVN [E23W] here?
Answer: -0.877 ± 0.15

Question: With NLFVALYDFVASGDNTLSITKGEALRVLGYNHNGEWCEAQTKNGQGWVPSNYITPVN [K24A] as the variant, how does the abundance fitness read?
Answer: -0.504 ± 0.099

Question: Which abundance fitness does the source give for NLFVALYDFVASGDNTLSITKGECLRVLGYNHNGEWCEAQTKNGQGWVPSNYITPVN [K24C] here?
Answer: -0.562 ± 0.2

Question: For NLFVALYDFVASGDNTLSITKGEDLRVLGYNHNGEWCEAQTKNGQGWVPSNYITPVN [K24D], which abundance fitness is on record?
Answer: -0.245 ± 0.18

Question: With NLFVALYDFVASGDNTLSITKGEFLRVLGYNHNGEWCEAQTKNGQGWVPSNYITPVN [K24F] as the variant, how does the abundance fitness read?
Answer: -0.446 ± 0.1

Question: Which abundance fitness does the source give for NLFVALYDFVASGDNTLSITKGEGLRVLGYNHNGEWCEAQTKNGQGWVPSNYITPVN [K24G] here?
Answer: -0.159 ± 0.069

Question: For NLFVALYDFVASGDNTLSITKGEHLRVLGYNHNGEWCEAQTKNGQGWVPSNYITPVN [K24H], which abundance fitness is on record?
Answer: -0.198 ± 0.19

Question: For NLFVALYDFVASGDNTLSITKGEILRVLGYNHNGEWCEAQTKNGQGWVPSNYITPVN [K24I], which abundance fitness is on record?
Answer: -0.241 ± 0.083

Question: With NLFVALYDFVASGDNTLSITKGELLRVLGYNHNGEWCEAQTKNGQGWVPSNYITPVN [K24L] as the variant, how does the abundance fitness read?
Answer: -0.519 ± 0.14
